Source: PubChem (National Center for Advancing Translational Sciences (NCATS))
A selection: hits, their analogues and other compounds. The true share with any hit is near 0.62%.
Akt phos inh: Akt phosphorylation inhibition; activity change, % for hits at 50 µM; Neuro2A IGF-stimulated pAkt S473 HTRF, 20 min; stronger effect = lower value; 360,000 compounds, 0.32% hits; AID 651550; in the data active = activity change below about -80%; inconclusive = mostly about -51% to -80%
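Neuro2A cells (4,500/well, DMEM with 0.5% FBS) were treated with compound at a single 50 µM final concentration, stimulated with 6 nM IGF for 20 min at 37 °C, and lysed. Phospho-Akt Ser473 was read by HTRF as 665/615 ratio ×10^4.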
TSHR antagonist: antagonists of human thyroid stimulating hormone receptor; P16473; TSHR-expressing cells, TSH-stimulated cAMP HTRF, 2 h; stronger effect = lower value; activity change, negative = inhibition, % at 11.5 µM; 330,000 compounds, 0.2% hits; AID 504810;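 active = activity change below a set negative limit, meaning inhibition stronger than a set level, cut at about -70% in these data; inconclusive = activity change between two set negative limits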
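Cell-based HTRF cAMP assay; TSHR cells + compound, TSH EC80 (4nM final), 2 h, 37 deg C. Lysis with anti-cAMP cryptate and cAMP-d2, 30 min RT, read 665/620 nm.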
p53 reactivator: restores transcriptional activity of mutant p53; H1299 p53-A138V BP100-luciferase reporter, luminescence, 24 h; Potency, µM (doses to about 92.2 µM), usual class: activators; 320,000 compounds, 0.063% hits; active = well fitted activation curve with a large enough effect; inconclusive = small, poorly fitted or top-dose-only effect; inactive = no such curve, though single readings can be large or run the other way; note: nearly all actives have a fitted effect of over 45% in size
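p53-null H1299 cells stably carrying temperature-sensitive p53-A138V and a BP100-luciferase reporter were pinned with compounds (4-point, 1:5 series) and held 24 hrs at 37 deg C. Luminescence was read 10 min after detection reagent.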
Rango complex inh: Rango-importin beta binding inhibition; Q14974; Rango CFP/YFP FRET sensor + importin beta, 45 min; Potency, µM (highest dose often 92.2 µM); 340,000 compounds, 0.031% hits; AID 540263; note: nearly all actives have a fitted effect of over 15% in size
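FRET biosensor Rango (snurportin 1 IBB between N-terminal EYFP and C-terminal Cerulean), 50 nM in PBS/1 mM DTT/0.02% Tween-20/0.1% BSA, preincubated 5 min RT with compound; 0.125 microM importin beta added, 45 min RT, CFP/YFP FRET ratio read.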
Rango release inh: inhibitors of RanGTP-induced Rango-importin beta complex dissociation; 340,000 compounds, 0.071% hits; Biochemical FRET Rango-importin beta, RanGTP-induced dissociation; Potency, µM (series often up to 46.1 µM); AID 540253; O95149+P62826; note: nearly all actives have a fitted effect of over 45% in size
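Compounds preincubate 5 min with complex of recombinant Rango and importin beta in PBS with 1 mM DTT. Ran (0.6 uM) loaded with 2 mM GTP plus 0.2 uM RCC1 starts dissociation; FRET is recorded 45 min later.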
A number is an active result; - = inactive; ? = inconclusive; . = no result. Unless noted, calls come from the whole dose curve.

SMILES	Akt phos inh	TSHR antagonist	p53 reactivator	Rango complex inh	Rango release inh
O=C(Nc1ccc([N+](=O)[O-])cc1Cl)c1cc(Cl)ccc1O	-	-91	-	-	-
O=S1(=O)C=C[C@@H](COCc2ccccc2)N1Cc1ccc(Br)cc1	-	.	.	.	.
Fc1cccc(F)c1/C=C/c1ccc2ccccc2n1	-	-	22µM	-	-
C=CCSC(=C(C#N)C#N)c1cc2c([nH]1)CCCC2	.	-	-	?	16µM
O=C(O)c1cc2c([nH]c1=O)CCCC2	-	-	-	-	-
CCO[C@@H]1OC(C(=O)Nc2ccccc2)=C[C@H](c2csc3ccccc23)[C@H]1CCCO	-	-	-	-	-
O=C(NCCN1CCCCC1)c1ccc(Oc2cc(Cl)cc(Cl)c2)o1	-	-	-	-	16µM
Cc1ccc(CNC(=O)c2nnc(Cc3ccc(Cl)cc3)o2)cc1	-	-	-	-	-
CS(=O)(=O)N(CC(=O)N1CCC(C(N)=O)CC1)c1cc(C(F)(F)F)ccc1Cl	-	-	-	-	-
Cc1nnc(N2C(=O)C(O)=C(C(=O)c3ccco3)C2c2ccc(C(C)(C)C)cc2)s1 (configuration not stated)	-	-	-	?	26µM
Cc1nnc(N2C(=O)C(O)=C(C(=O)c3ccco3)C2c2ccc(F)cc2)s1 (configuration not stated)	-	-	-	-	?
Nc1cc2c3c(cccc3c1)C(=O)N(CCN1CCCC1)C2=O	-	-	-	?	?
CCN(CC)CCN1C(=O)c2cccc3cc(N)cc(c23)C1=O	-	-76	-	-	-
COc1ccccc1Nc1nc(-c2c(C)[nH]c3ccccc23)cs1	-	-	?	?	12µM
Cc1[nH]c2ccccc2c1-c1csc(N)n1	-	-	-	?	-
Cn1cc(CNC(=O)Nc2ccc3c(c2)OCO3)cn1	-106%	-	-	-	-
COCCn1c(SCC(=O)Nc2cc(C)on2)nnc1-c1ccccc1	-	-	-	-	-
COc1ccc(C(=O)NCCc2nnc3ccc(SCC(=O)NCc4ccc(F)cc4)nn23)cc1	-	-	-	-	-
CN(CC(=O)Nc1ccccc1Cl)C(=O)COC(=O)c1ccc(Cl)nc1	-	-	-	-	-
CN(CC(=O)Nc1ccccc1Cl)C(=O)COC(=O)c1nc(Cl)c(Cl)c(Cl)c1Cl	-	-89	-	-	-
CCc1ccc(NS(=O)(=O)c2cc3[nH]c(=O)c(=O)[nH]c3cc2C)cc1	-	-140	-	-	-
COc1ccccc1N1CCN(S(=O)(=O)/C=C/c2ccccc2)CC1	-126%	-	-	-	-
COc1ccc(S(=O)(=O)NC(=O)C2(C)CCN2C(=O)Cc2ccc(C(C)(C)C)cc2)cc1 (configuration not stated)	-	.	.	.	.
CC(=O)N1c2ccccc2C2CCCC[C@H]21 (some centres not stated)	-	-	-	-	-
C=C(C)Cn1c(CCNC(=O)CCC)nc2ccccc21	-104%	-	-	-	-
SMILES	Akt phos inh	TSHR antagonist	p53 reactivator	Rango complex inh	Rango release inh
c1ccc(CNc2cccnc2)cc1	-	.	.	.	.
COc1ccc(N2C(=O)C(Cl)=C(N(CCO)Cc3ccccc3)C2=O)cc1	-112%	-	-	-	-
Cc1ccc(CSc2nc3c(cc2C#N)CCC3)cc1	-85%	-	-	-	-
N#Cc1cc2c(nc1SCc1ccccc1)CCCCC2	-	-	-	-	-
Cn1cc(Cl)c(C(=O)N/N=C/c2ccc3c4c(cccc24)CC3)n1	-	-80	?	?	-
O=C(NC1C2CC3CC(C2)CC1C3)c1ccc2c(c1)OCO2 (configuration not stated)	-	-126	-	-	-
COc1cc(/C=C2\SC(=S)N(NS(=O)(=O)c3ccccc3)C2=O)ccc1O	-	-	-	?	-
COc1cc(/C=C2\SC(=S)N(NS(=O)(=O)c3ccc(C)cc3)C2=O)ccc1O	-	-	-	41µM	?
CCOc1cc(/C=C2\SC(=S)N(NS(=O)(=O)c3ccc(C)cc3)C2=O)ccc1O	-	.	.	23µM	-
COc1cc(CN2CCNC(=O)C2CC(=O)N(Cc2nccn2C)C(C)C)cc(OC)c1 (configuration not stated)	-	-	-	-	-
O=C1C=C(Nc2ccc(Cl)cc2)CC(c2ccco2)C1 (configuration not stated)	-	-	-	-	-
O=C1C=C(Nc2cccc(O)c2)CC(c2ccco2)C1 (configuration not stated)	-	-	-	?	12µM
COc1ccccc1C1C(C(=O)c2sc(C)nc2C)=C(O)C(=O)N1CCN1CCOCC1 (configuration not stated)	-	-	-	?	-
COc1cccc(C2C(C(=O)c3sc(C)nc3C)=C(O)C(=O)N2CCN2CCOCC2)c1OC (configuration not stated)	-122%	-	-	-	-
O=C(N/N=C/c1sc2ccccc2c1O)c1ccccc1	-	-	14µM	?	?
CCOC(=O)CC(=O)c1cc(OC)c(OC)c(OC)c1	-106%	-	-	?	?
CCOC(=O)Cn1nnc(-c2cc(OC)c(OC)c(OC)c2)n1	-	-	-	-	-
Cc1ccc(NC(=S)NNC(=O)c2cccc([N+](=O)[O-])c2)cc1Cl	-	-	-	-	-
Cc1c(NC(=O)Nc2c(Cl)cccc2Cl)c(=O)n(-c2ccccc2)n1C	-	-	-	-	-
Cc1c(NC(=O)c2cc(-c3ccco3)on2)c(=O)n(-c2ccccc2)n1C	-	-	-	-	-
Cc1c(NC(=O)c2cc(-c3cccs3)on2)c(=O)n(-c2ccccc2)n1C	-83%	-	-	-	-
Cc1c(NC(=O)Nc2ccccc2Cl)c(=O)n(-c2ccccc2)n1C	-	-80	-	-	-
N#C/C(=C\c1ccc(-c2ccc([N+](=O)[O-])cc2Br)o1)C(=O)N1CCN(c2ccccc2)CC1	-	-	-	-	-
O=C(COC(=O)Cn1cnc2ccccc21)Nc1cc2c(cc1Cl)C(=O)c1ccccc1C2=O	-	-	-	-	-
OC(CN1C2=NCCCN2c2ccccc21)c1ccc2c(c1)OCO2 (configuration not stated)	-101%	-	-	-	-
OC(CN1C2=NCCN2c2ccccc21)c1ccc2c(c1)OCO2 (configuration not stated)	-118%	-	-	-	-
COc1cccc(N2C(=O)CC(c3c[nH]c4ccccc34)C2=O)c1 (configuration not stated)	-102%	-	-	?	-
O=C1NC[C@@H](CCCCN2C[C@H](Cc3ccc(O)cc3)N(Cc3ccccc3)C(=O)C2=O)N(Cc2ccccc2)C1=O	-	.	.	.	.
